Test system: BCR/ABL-associated tyrosine kinase activity
Experiment: Anti-phosphotyrosine Western blotting
Conditions: K562 cells, 20 μM, 4 hour treatment

Question: For `COC(=O)c1ccc(NCc2cc(O)ccc2O)cc1` [AG957], which “BCR/ABL associated tyrosine phosphorylation” value is on record?
Answer: Its value is “abrogates all phosphotyrosine activity with the exception of the 80 kda protein”.

Source: patent publication US20030004140A1, “Methods for modulating cell-adhesion mediated drug resistance” (priority 2000, published 2003)
